Where “and” joins values, the source holds several entries; their conditions need not be identical. Equal values may be shown once.
System: PNH erythrocytes
Assay: CAP-mediated hemolysis assay with PNH erythrocytes (subject A)
Format: cell-based, human
Settings: 400 μg/mL; two experiments
Experimental: Compound 1 and Compstatin were prepared as 15 mM stocks in DMSO. […] Complement-preserved normal human serum (NHS) from an individual donor of ABO blood group type AB (NHS-AB) was purchase from BioreclamationIVT (Westbury, NY). Gelatin veronal buffer (GVB), pH 7.3, without Ca^++ and Mg^++ (GVB^0) and 100 mM MgCl2 +100 mM EGTA (MgEGTA) were obtained from Complement Technology Inc. (Tyler, TX).
GVB^0·MgEGTA was prepared by mixing GVB^0 and 100 mM MgEGTA in a 9:1 ratio. PNH erythrocytes were used within five days of blood collection; before assay cells were collected by centrifugation at 800×g and 4° C. for 3 minutes and resuspended in fresh cold GVB^0·MgEGTA to a density of 5×10^8 cells/mL.
50 μL of NHS-AB was added to each well. The plates were mixed and incubated at room temperature for 5 minutes. […] Following incubation, PNH cells were removed by centrifugation at 800×g and 4° C. for 3 minutes, 100 μL supernatant per well was transferred to flat-bottom clear microtiter plates, and A405 of the supernatant was measured in a Molecular Devices Spectramax Plus plate reader. […]
Combinatorial interactions were analyzed via two methods. […]
Synergy and antagonism volumes were calculated separately as the summed volumes of peaks respectively above and below the Z=0 plane. Volumes were determined using 95% confidence limits to assure significance. […]

B1: Eculizumab: monoclonal antibody complement inhibitor of the terminal component C5; only approved therapy for PNH (antibody, chains of the INN, looked up)
heavy: QVQLVQSGAEVKKPGASVKVSCKASGYIFSNYWIQWVRQAPGQGLEWMGEILPGSGSTEYTENFKDRVTMTRDTSTSTVYMELSSLRSEDTAVYYCARYFFGSSPNWYFDVWGQGTLVTVSSASTKGPSVFPLAPCSRSTSESTAALGCLVKDYFPEPVTVSWNSGALTSGVHTFPAVLQSSGLYSLSSVVTVPSSNFGTQTYTCNVDHKPSNTKVDKTVERKCCVECPPCPAPPVAGPSVFLFPPKPKDTLMISRTPEVTCVVVDVSQEDPEVQFNWYVDGVEVHNAKTKPREEQFNSTYRVVSVLTVLHQDWLNGKEYKCKVSNKGLPSSIEKTISKAKGQPREPQVYTLPPSQEEMTKNQVSLTCLVKGFYPSDIAVEWESNGQPENNYKTTPPVLDSDGSFFLYSRLTVDKSRWQEGNVFSCSVMHEALHNHYTQKSLSLSLG
light: DIQMTQSPSSLSASVGDRVTITCGASENIYGALNWYQQKPGKAPKLLIYGATNLADGVPSRFSGSGSGTDFTLTISSLQPEDFATYYCQNVLNTPLTFGQGTKVEIKRTVAAPSVFIFPPSDEQLKSGTASVVCLLNNFYPREAKVQWKVDNALQSGNSQESVTEQDSKDSTYSLSSTLTLSKADYEKHKVYACEVTHQGLSSPVTKSFNRGEC
inhibition at maximal test concentration: 34% and 38%

— US20250032490A1, “THERAPEUTIC REGIMENS FOR TREATMENT OF PAROXYSMAL NOCTURNAL HEMOGLOBINURIA” (Achillion Pharmaceuticals, Inc., priority 2017, published 2025)
